Experimental data as given in patent US20100099847A1 (Kyowa Hakko Bio Co., Ltd., priority 2006, published 2010).

Assays:
[1] = width of approximately 300 crystals
Experimental: The crystals were observed and photographed using a VH-8000 digital microscope (Keyence Corporation). The width of approximately 300 crystals was measured and calculations performed.

[2] = volume median diameter
Experimental: This is synonymous with volume median diameter, and it was measured using a laser diffraction and scattering particle diameter analyzer, the LMS-24 SK Laser Micron Sizer (Seishin Enterprise Co. Ltd.) and expressed as a cumulative 50% volume particle diameter.

## Glutathione (gamma-L-glutamyl-L-cysteinyl glycine) [Example 1]
[1]
  Average width: 25 μm
[2]
  Average particle diameter: 52 μm
